Sequences of proteins named here, by UniProt entry; tags and fusion partners are left off.
UniProt P14842, whole entry: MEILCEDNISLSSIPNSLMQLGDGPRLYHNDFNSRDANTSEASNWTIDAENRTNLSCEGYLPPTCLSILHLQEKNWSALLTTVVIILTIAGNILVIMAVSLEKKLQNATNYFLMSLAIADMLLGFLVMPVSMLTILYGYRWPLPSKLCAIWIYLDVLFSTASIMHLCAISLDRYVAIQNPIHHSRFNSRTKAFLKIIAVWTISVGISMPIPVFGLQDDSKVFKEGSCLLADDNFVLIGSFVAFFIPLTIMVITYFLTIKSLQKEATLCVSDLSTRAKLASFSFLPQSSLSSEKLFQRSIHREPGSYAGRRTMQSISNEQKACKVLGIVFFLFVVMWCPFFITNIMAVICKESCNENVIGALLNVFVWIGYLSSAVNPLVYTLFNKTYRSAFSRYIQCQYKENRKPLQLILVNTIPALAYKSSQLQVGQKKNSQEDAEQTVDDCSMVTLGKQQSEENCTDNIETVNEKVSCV

According to patent publication US6660870B1, “2-acylaminobenzimidazole derivatives for treating glaucoma” (Alcon, Inc., priority 2000, dated 2003):

Biological target: T1, 5-HT2 receptor (Rattus norvegicus, UniProt P14842)
T1 construct: A7r5 rat vascular smooth muscle cells; endogenous in cells; host or cells: A7r5 rat vascular smooth muscle cells
Assay: 5-HT2 Functional Assay: Phosphoinositide (PI) Turnover Assay
Format: cell-based
Settings: A7r5 cells, relative to 5-HT (set at 100%)
Experimental: 5-HT2 Functional Assay: Phosphoinositide (PI) Turnover Assay
The relative agonist activity of serotonergic compounds at the 5-HT2 receptor can be determined in vitro using the ability of the compounds to stimulate the production of [^3H]inositol phosphates in [^3H]myo-inositol-labeled A7r5 rat vascular smooth muscle cells by their ability to activate the enzyme phospholipase C. These cells are grown in culture plates, maintained in a humidified atmosphere of 5% CO2 and 95% air and fed semi-weekly with Dulbecco's modified Eagle medium (DMEM) containing 4.5 g/l glucose and supplemented with 2 mM glutamine, 10 μg/ml gentamicin, and 10% fetal bovine serum. For the purpose of conducting the phosphoinositide (PI) turnover experiments, the A7r5 cells are cultured in 24-well plates as previously [J. Pharmacol. Expt. Ther., 286, 411 (1998)]. Confluent cells are exposed for 24-30 hrs to 1.5 μCi [^3H]-myo-inositol (18.3 Ci/mmol) in 0.5 ml of serum-free medium. […] The eluate (4 ml) is collected, mixed with 15 ml scintillation fluid, and the total [^3H]-IPs determined by scintillation counting on a beta-counter. Concentration-response data are analyzed by the sigmoidal fit function of the Origin Scientific Graphics software (Microcal Software, Northampton, Mass.) to determine agonist potency (EC50 value) and efficacy (Emax). […]

SMILES: COc1cc(C[C@@H](C)N)c(OC)cc1I [(R)-DOI]
- Efficacy (Emax, %): 82%
